The target in this experiment is human capsaicin receptor (Homo sapiens, UniProt Q8NER1). The experiment can be described thus: Calcium mobilization assay, determination of antagonist activity (Example 6). The conditions noted are these: read-out: IC50 determined as described in Example 6; cells expressing human capsaicin receptor; capsaicin at EC50. Here is the method: A cDNA encoding full length human capsaicin receptor (SEQ ID NO:1, 2 or 3 of U.S. Pat. No. 6,482,611) is subcloned in the plasmid pBK-CMV (Stratagene, La Jolla, Calif.) for recombinant expression in mammalian cells.
Human embryonic kidney (HEK293) cells are transfected with the pBK-CMV expression construct encoding the full length human capsaicin receptor using standard methods. The transfected cells are selected for two weeks in media containing G418 (400 μg/ml) to obtain a pool of stably transfected cells. Independent clones are isolated from this pool by limiting dilution to obtain clonal stable cell lines for use in subsequent experiments. […]
To measure the ability of a test compound to agonize or antagonize a calcium mobilization response in cells expressing capsaicin receptors to capsaicin or other vanilloid agonist, the EC50 of the agonist capsaicin is first determined. […] Capsaicin-induced calcium mobilization is monitored using either FLUOROSKAN ASCENT (Labsystems; Franklin, Mass.) or FLIPR (fluorometric imaging plate reader system; Molecular Devices, Sunnyvale, Calif.) instruments. […] In this equation, y is the maximum fluorescence signal, x is the concentration of the agonist or antagonist (in this case, capsaicin), a is the Emax, b corresponds to the EC50 value and c is the Hill coefficient. […]

The chains behind the UniProt entries cited, without tags or fusion partners.
UniProt Q8NER1, whole entry: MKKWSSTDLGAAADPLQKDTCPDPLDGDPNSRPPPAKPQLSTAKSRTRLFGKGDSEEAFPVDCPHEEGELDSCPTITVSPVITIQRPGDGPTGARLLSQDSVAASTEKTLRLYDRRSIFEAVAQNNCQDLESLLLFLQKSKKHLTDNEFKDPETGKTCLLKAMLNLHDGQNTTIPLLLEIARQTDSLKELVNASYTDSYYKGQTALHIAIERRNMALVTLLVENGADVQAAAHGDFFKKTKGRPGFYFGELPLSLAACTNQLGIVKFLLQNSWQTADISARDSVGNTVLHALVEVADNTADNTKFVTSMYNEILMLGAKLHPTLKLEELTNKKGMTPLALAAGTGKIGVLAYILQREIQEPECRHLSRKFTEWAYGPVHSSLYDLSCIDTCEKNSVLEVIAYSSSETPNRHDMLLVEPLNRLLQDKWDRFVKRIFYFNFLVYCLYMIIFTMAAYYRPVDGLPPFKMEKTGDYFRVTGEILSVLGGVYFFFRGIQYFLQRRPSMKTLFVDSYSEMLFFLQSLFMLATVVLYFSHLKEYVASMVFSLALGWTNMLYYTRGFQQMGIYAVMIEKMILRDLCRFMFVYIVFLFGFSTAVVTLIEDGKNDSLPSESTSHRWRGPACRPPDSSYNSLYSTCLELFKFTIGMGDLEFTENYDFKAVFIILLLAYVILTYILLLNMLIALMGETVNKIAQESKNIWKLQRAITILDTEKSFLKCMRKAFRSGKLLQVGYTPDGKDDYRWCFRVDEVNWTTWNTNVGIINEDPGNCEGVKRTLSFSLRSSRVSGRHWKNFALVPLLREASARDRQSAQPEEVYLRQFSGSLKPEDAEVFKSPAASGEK

Take `Cc1cc(F)cnc1-c1ccc2c(Nc3ncc(C(F)(F)F)cn3)ccnc2n1`: the IC50 was less than 1000 nM.

(Values after patent US7935702B2, “Substituted biaryl quinolin-4-ylamine analogues” (Neurogen Corporation, priority 2004, dated 2011).)
